Test results reported in US11203587B2, “Thyroid hormone receptor beta agonist compounds” (Terns, Inc., priority 2018, dated 2021).
pEC50: −log10 of the molar value.

The chains behind the UniProt entries cited, without tags or fusion partners. Residues count along the entry.
UniProt P10827, 163-410 isoform 2 limits assumed: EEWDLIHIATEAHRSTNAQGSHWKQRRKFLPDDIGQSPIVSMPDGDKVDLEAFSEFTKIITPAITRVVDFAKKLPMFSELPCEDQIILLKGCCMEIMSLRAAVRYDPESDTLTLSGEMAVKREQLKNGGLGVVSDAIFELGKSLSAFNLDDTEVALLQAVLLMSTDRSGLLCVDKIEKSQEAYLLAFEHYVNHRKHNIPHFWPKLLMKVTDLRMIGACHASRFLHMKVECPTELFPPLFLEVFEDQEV
UniProt P10828, 217-461 limits assumed: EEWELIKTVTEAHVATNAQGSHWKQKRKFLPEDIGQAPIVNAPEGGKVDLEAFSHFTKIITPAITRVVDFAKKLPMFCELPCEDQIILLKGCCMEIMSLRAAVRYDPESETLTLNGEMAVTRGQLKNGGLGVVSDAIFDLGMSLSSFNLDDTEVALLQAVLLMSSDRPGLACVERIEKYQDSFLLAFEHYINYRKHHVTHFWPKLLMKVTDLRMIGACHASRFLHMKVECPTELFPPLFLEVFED

Legend:
THR alpha-LBD = THR alpha-LBD (Homo sapiens, UniProt P10827); experiment: LanthaScreen TR-FRET Thyroid Receptor alpha Coactivator Assay; conditions: read-out: EC50 THRα-FRET, 2 hours incubation at room temperature, run in duplicate multiple times, average data
THR beta-LBD = THR beta-LBD (Homo sapiens, UniProt P10828); experiment: LanthaScreen TR-FRET Thyroid Receptor beta Coactivator Assay; assay type: biochemical; conditions: for THRβ-Selectivity: THR beta over THR alpha, derived from T3-selectivity normalized data; for pEC50: read-out: EC50 THRβ-FRET, TR-FRET coactivator assay, 2 hours incubation at room temperature, run in duplicate multiple times, average data

Row | Compound | pEC50 (THR alpha-LBD) | THRβ-Selectivity (THR beta-LBD) | pEC50 (THR beta-LBD)
1 | Cn1nc(-c2cc(Cl)c(Oc3cc(C4CC4)c(=O)[nH]n3)c(Cl)c2)c(=O)[nH]c1=O | 5.48 | 22.7 | 6.28
2 | Cc1cc(-c2nn(C)c(=O)[nH]c2=O)cc(C)c1Cc1cc(C(C)C)c(=O)[nH]n1 | 5.37 | 10.9 | 5.85
